{
  "source": "patent US12343380B2",
  "about": "“Expansion of TILs utilizing AKT pathways inhibitors” (Iovance Biotherapeutics, Inc., priority 2018, dated 2025)",
  "origin": "cited, not measured here",
  "details": "1 mg vial, CellGenix lot 10200121 COA",
  "data": [
    {"substance": "rhIL-2: purified, lyophilized recombinant human interleukin-2; CellGenix lot 10200121", "values": [
      {"measurement": "specific activity", "value": "25×10^6 IU/mg"}
    ]}
  ]
}
